From patent US20260248831A1, “NON-TUBERCULOSIS MYCOBACTERIA INFECTION TREATMENT” (AN2 Therapeutics, Inc., priority 2021, published 2026)

Legend:
Assay in all cases: Checkerboard antibacterial synergy testing of EBO pairwise combinations
Type in all cases: cell-based
Conditions in all cases: in combination with EBO, Middlebrook 7H9+5% OADC
[1] = tested on: M. abscessus ATCC 19977
Procedure: (§1) Frozen stocks of the drugs were prepared at 5 or 2 mg/ml and frozen in aliquots at −20° C. On the day of the experiment the stocks were thawed and diluted to the appropriate concentration. Middlebrook 7H9 broth and agar, CA-MH agar and Middlebrook OADC were all purchased from Becton-Dickinson and Company (Sparks, MD).
(§2) M. avium 2285R (Verma et al. Microbiol (2019) 10: 693) and M intracellulare DNA000111 were obtained from Diane Ordway (Colorado State University, Fort Collins, CO). M. chimaera 20-S-05 and the macrolide/bedaquiline-resistant M. intracellulare 20-S-13 isolate were obtained from Barbara Brown-Elliott (Mycobacteria/Nocardia Research Laboratory, University of Texas Health Science Center, Tyler Tx). The strains M abscessus ATCC 19977, M. avium ATCC 700898 and M. peregrinum ATCC 700686 were obtained from the American Type Culture Collection (ATCC, Manassas, VA). Stocks of isolates were prepared and frozen at −80° C. Fresh cultures of each isolate (1-2 weeks) were grown on either 7H10 agar plus 5% OADC or CAMH agar plus 5% OADC for use in each experiment.
(§3) The checkerboard methodology was used to test for synergy and antagonism using Middlebrook 7H9+5% OADC (Dubos et al. Am Rev Tuberc (1947) 56:334-45) as the microbiology growth media. The first antibiotic of the combination, EBO, was serially diluted along the x-axis, whereas the second antibiotic was diluted along the y-axis. Synergistic or antagonistic activity was determined using the sum of the fractional inhibitory concentration (ΣFIC) index. The FTC index is calculated as the sum of FTC A+FTC B, where FTC A is the MIC of drug A in the combination of drugs A and B divided by the MIC of drug A alone, plus the MIC of drug B in the combination of drugs A and B divided by the MIC of drug B alone. A combination of drugs is considered synergistic when the FIC is ≤0.5, additive when the FTC is >0.5 to 1, indifferent when the FIC is >1 to 2, and antagonistic when the FTC is >2 (EUCAST. Clin. Microbiol. Infect. (2000) 6: 503-508).

[2] = tested on: M. avium ATCC 700898
Procedure: as §1, §2, §3

[3] = tested on: M. chimaera 20-S-05
Procedure: as §1, §2, §3

[4] = tested on: M. intracellulare DNA000111
Procedure: as §1, §2, §3

[5] = tested on: M. peregrinum ATCC 700686
Procedure: as §1, §2, §3

NCC[C@H](O)C(=O)N[C@@H]1C[C@H](N)[C@@H](O[C@H]2O[C@H](CN)[C@@H](O)[C@H](O)[C@H]2O)[C@H](O)[C@H]1O[C@H]1O[C@H](CO)[C@@H](O)[C@H](N)[C@H]1O [AMK, Amikacin]
Summary Activity of EBO Drug Combinations (ΣFIC index class) [1]: I (I = Indifferent) | Summary Activity of EBO Drug Combinations (ΣFIC index class) [2]: I (I = Indifferent) | Summary Activity of EBO Drug Combinations (ΣFIC index class) [3]: I (I = Indifferent) | Summary Activity of EBO Drug Combinations (ΣFIC index class) [4]: I (I = Indifferent) | Summary Activity of EBO Drug Combinations (ΣFIC index class) [5]: A (A = Additive)

CC[C@H]1OC(=O)[C@H](C)[C@@H](O[C@H]2C[C@@](C)(OC)[C@@H](O)[C@H](C)O2)[C@H](C)[C@@H](O[C@@H]2O[C@H](C)C[C@H](N(C)C)[C@H]2O)[C@](C)(OC)C[C@@H](C)C(=O)[C@H](C)[C@@H](O)[C@]1(C)O [CLR, Clarithromycin]
Summary Activity of EBO Drug Combinations (ΣFIC index class) [1]: I (I = Indifferent) | Summary Activity of EBO Drug Combinations (ΣFIC index class) [2]: I (I = Indifferent) | Summary Activity of EBO Drug Combinations (ΣFIC index class) [3]: I (I = Indifferent) | Summary Activity of EBO Drug Combinations (ΣFIC index class) [4]: I (I = Indifferent) | Summary Activity of EBO Drug Combinations (ΣFIC index class) [5]: I (I = Indifferent)
